# According to ChEMBL document CHEMBL4507309:
# The chains behind the UniProt entries cited, without tags or fusion partners.
# UniProt P21917, whole entry, looked up: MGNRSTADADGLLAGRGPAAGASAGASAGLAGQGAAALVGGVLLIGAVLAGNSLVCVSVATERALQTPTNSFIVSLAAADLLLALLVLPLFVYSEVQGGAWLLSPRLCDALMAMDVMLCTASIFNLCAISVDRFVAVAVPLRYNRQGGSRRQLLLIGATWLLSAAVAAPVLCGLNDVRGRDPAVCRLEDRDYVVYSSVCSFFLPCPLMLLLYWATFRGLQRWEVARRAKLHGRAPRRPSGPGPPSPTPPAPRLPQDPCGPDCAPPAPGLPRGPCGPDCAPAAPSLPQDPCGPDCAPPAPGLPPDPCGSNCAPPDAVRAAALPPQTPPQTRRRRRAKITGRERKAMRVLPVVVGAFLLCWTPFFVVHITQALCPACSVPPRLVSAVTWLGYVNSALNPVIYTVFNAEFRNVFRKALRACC
# Target: D(4) dopamine receptor (Homo sapiens) (UniProt P21917)
# Assay: GPCRScan assay: inhibition of D4
# Conditions: Compound concentration 10.0 uM
structure (smiles),measurement,value
Cc1ccc2nc(CNCCCOc3ccccc3)cc(O)c2c1,inhibition,96.7%
